This is an account of results in US20190359697A1 (Scripps Research, published 2019).

Amino acid sequences for entries named in this document (tags omitted). Residues count along the entry.
UniProt P15391, 20-556: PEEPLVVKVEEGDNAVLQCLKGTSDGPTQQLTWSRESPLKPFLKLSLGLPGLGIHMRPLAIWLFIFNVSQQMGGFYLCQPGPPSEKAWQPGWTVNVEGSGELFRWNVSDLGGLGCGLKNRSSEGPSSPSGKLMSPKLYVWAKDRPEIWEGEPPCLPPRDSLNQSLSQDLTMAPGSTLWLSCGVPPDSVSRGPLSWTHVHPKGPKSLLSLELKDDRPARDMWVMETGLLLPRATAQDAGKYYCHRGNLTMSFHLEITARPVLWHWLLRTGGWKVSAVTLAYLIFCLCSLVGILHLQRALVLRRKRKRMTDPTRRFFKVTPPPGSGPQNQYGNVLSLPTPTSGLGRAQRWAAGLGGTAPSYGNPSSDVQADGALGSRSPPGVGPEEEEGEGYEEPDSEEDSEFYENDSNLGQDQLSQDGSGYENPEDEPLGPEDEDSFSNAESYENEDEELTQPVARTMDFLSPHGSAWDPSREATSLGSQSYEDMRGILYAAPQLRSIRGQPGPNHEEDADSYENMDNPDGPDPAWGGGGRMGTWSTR

Assay [1] has as its target CD19 (UniProt P15391). Description: flow cytometry cell binding; FIG. 8. A general note: In flow cytometry, cells or beads pass a laser one at a time.
The target in assay [2] is CD19 (UniProt P15391). Description: flow cytometry cell binding; FIG. 9; WT switch (no PNE).

As a reminder, the EC50 is the concentration that produces a half-maximal response. A higher EC50 goes with weaker potency.

FMC63 wt showed an EC50 in assay [1] of 1.1 nM.

In turn, murine FMC63 WT registered a concentration for a half-maximal effect (EC50) in assay [2] of 0.971 nM.
